From PubChem BioAssay AID720708 (National Center for Advancing Translational Sciences (NCATS), 2013) come the findings set out here.

By UniProt entry, the sequences of proteins in these tests, tags left out.
UniProt Q8WZA2, whole entry: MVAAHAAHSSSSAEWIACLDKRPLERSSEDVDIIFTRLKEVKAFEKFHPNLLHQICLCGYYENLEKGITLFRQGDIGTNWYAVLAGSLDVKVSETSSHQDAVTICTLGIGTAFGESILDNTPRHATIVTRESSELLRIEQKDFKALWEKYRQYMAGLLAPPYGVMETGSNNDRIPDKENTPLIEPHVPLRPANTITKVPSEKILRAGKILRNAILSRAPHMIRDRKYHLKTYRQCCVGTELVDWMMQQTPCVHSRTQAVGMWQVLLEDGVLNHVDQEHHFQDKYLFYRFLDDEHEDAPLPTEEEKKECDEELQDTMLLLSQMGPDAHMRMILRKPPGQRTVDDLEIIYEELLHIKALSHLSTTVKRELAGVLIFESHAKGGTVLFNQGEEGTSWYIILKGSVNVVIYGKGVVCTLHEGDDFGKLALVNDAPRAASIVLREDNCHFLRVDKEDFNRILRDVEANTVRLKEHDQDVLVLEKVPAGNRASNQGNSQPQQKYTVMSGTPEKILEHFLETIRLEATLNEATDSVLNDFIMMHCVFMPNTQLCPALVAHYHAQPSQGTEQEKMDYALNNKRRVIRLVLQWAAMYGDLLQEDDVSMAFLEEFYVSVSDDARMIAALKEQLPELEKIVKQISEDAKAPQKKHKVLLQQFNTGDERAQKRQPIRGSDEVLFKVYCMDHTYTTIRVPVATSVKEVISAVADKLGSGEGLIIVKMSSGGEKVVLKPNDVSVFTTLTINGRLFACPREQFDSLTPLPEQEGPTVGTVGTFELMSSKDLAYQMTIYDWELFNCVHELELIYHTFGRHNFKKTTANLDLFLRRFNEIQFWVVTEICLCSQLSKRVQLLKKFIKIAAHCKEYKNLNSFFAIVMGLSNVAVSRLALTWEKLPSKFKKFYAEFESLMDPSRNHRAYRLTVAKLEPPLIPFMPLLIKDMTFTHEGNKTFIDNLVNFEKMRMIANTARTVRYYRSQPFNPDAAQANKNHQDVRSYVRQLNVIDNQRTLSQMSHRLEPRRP

Structures are written as SMILES. This is a selection; strong and weak results do not stand in their true shares. Active and inactive are the calls of the source. The call rests on the fitted dose curve; in most records, active means well fitted inhibition curve with a large enough effect; inconclusive means small, poorly fitted or top-dose-only effect; inactive means no such curve, though single readings can be large or run the other way.
On the % scale 0 is the no-effect control and ±100 the full control effect.

In the assay the target is Rap guanine nucleotide exchange factor 4 (Homo sapiens) (UniProt Q8WZA2). The assay is described as follows: qHTS for Antagonist of cAMP-regulated guanine nucleotide exchange factor 2 (EPAC2): primary screen. Further: nearly all actives have a fitted effect of over 45% in size. Particulars: EPAC2 GEF exchange of Rap1B-BODIPY-GDP, fluorescence; at 114 µM (top of the series) unless noted. Background: Quantitative high-throughput screening tests each substance at several concentrations.
With `c1ccc(CN2CCC(Nc3ccccc3)CC2)cc1`, the activity, negative = inhibition is inactive: 7.43%.

`Cc1cc(N(CCCl)CCCl)ccc1C=O`: the activity, negative = inhibition was inactive: -0.58%.

For the molecule `O=c1[nH]c2ccccc2n1C1CCN(C(c2ccccc2)c2nnnn2C2CCCC2)CC1` (configuration not stated), the activity, negative = inhibition was inactive: -7.67%.

For the molecule `CCCN1CCC(Nc2cc(OC)cc(OC)c2)CC1`, the activity, negative = inhibition is inactive: 9.74%.

`CN(C)C1(CNC(=O)c2cccc(C#N)c2)CCCCC1`: the activity, negative = inhibition was inactive: 2.88%.

Take `CC(C)(C)n1nnnc1C(c1cccc2ccccc12)N1CCC(n2c(=O)[nH]c3ccccc32)CC1` (configuration not stated): the activity, negative = inhibition was inactive: -18.5%.

For the molecule `CC(C)(C)OC(=O)N1CCC(N(C(=O)c2ccccc2)c2ccc(Cl)cc2)CC1`, the activity, negative = inhibition was inactive: -3.08%.

As for `N#Cc1ccc(C(=O)NCC2(N3CCCCC3)CCCCC2)cc1`, the activity, negative = inhibition is inactive: -0.317%.

On to `N/C(=N\O)c1c(N)no[n+]1[O-]`, for which the activity, negative = inhibition was inactive: 8.26%.

As for `CCOC(=O)N1CCC(Nc2ccc(C)cc2)CC1`, the activity, negative = inhibition is inactive: -3.84%.

Take `COc1cccc(C(c2nnnn2C(C)(C)C)N2CCC(n3c(=O)[nH]c4ccccc43)CC2)c1OC` (configuration not stated): the activity, negative = inhibition is inactive: -28.5%.

In the case of `CCCCn1nnnc1C(c1cccc(OC)c1OC)N1CCC(n2c(=O)[nH]c3ccccc32)CC1` (configuration not stated), the activity, negative = inhibition was inactive: -21.7%.

With `CCc1cc(C(=O)NCC2(N3CCCCC3)CCCCC2)sc1C`, the activity, negative = inhibition is inactive: 10.1%.

As to `O=C(OC1CN2CCC1CC2)C1c2ccccc2C=Cc2ccccc21` (configuration not stated), the activity, negative = inhibition was inactive: 19.2%.

As to `O=c1[nH]c2ccccc2n1C1CCN(C(c2cccs2)c2nnnn2C2CCCC2)CC1` (configuration not stated), the activity, negative = inhibition is inactive: -14.5%.

As for `O=C(O)c1cccc(Nc2c([N+](=O)[O-])cc([N+](=O)[O-])cc2[N+](=O)[O-])c1`, the activity, negative = inhibition is inactive: 3.4%.

Regarding `O=C(NCC1(N2CCOCC2)CCCCC1)c1cc(Br)ccc1Cl`, the activity, negative = inhibition was inactive: 5.45%.

Consider `CCCCn1nnnc1C(c1ccccc1)N1CCC(n2c(=O)[nH]c3ccccc32)CC1` (configuration not stated), for which the activity, negative = inhibition is inactive: -5.99%.

For `COc1cc(C(=O)NCC2(N3CCOCC3)CCCCC2)cc(OC)c1C`, the activity, negative = inhibition was inactive: -14.7%.

For `COc1ccc(C(=O)NCC2(N3CCOCC3)CCCCC2)cc1OC`, the activity, negative = inhibition is inactive: 3.72%.

With `O=c1[nH]c2ccccc2n1C1CCN(C(c2ccnc3ccccc23)c2nnnn2C2CCCC2)CC1` (configuration not stated), the activity, negative = inhibition is inactive: -3.58%.

In the case of `O=c1[nH]c2ccccc2n1C1CCN(C(c2cccs2)c2nnnn2C2CCCCC2)CC1` (configuration not stated), the activity, negative = inhibition was inactive: -2.98%.
